For 24 molecules, inhibition results are on record in PubChem BioAssay AID463195 (Sanford-Burnham Center for Chemical Genomics, 2010).

As a reminder, the inhibition is the relative decrease from the control value, in per cent.

Only a part is listed here, and it is no random draw. Some tests of the compounds listed are not included; inactive here does not mean inactive elsewhere. Active and inactive are the calls of the source.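 The calls were made as follows: active = inhibition of 40% or more at the single tested concentration; inactive = the rest.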

The experiment is described as follows: growth inhibitors of isogenic TIM10 control yeast, primary screen, counter-screen for tim10-1 yeast inhibitor project, luminescence, uHTS (AID 463195).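 Also: wild-type TIM10 isogenic control strain grown at permissive 25 °C; 0% = DMSO yeast wells and 100% = minimal medium wells without yeast.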 As to conditions: S. cerevisiae TIM10 strain growth, BacTiter-Glo luminescence, 24 h; at 10 µM; active compounds read high. For orientation: The purpose of a counterscreen is to sort out artefacts and off-target activity.
On to `O=C(NCC1(N2CCCCC2)CCCCC1)c1cc([N+](=O)[O-])ccc1Cl`, for which the inhibition was inactive: -8.64%.

Regarding `CN1[C@@H]2CC[C@H]1CC(OC(=O)C(O)(c1ccccc1)c1ccccc1)C2` (some centres undefined), the inhibition is inactive: -14.4%.

`CC(C)N1C(=O)CC2(CCN(CCOC(=O)C(O)(c3ccccc3)c3ccccc3)CC2)C1=O`: the inhibition is inactive: -23.5%. Next, `COc1cc(SC)ccc1C(=O)NCC1(N(C)C)CCCCC1`: inactive: 6.58%; `CCN(CC)CC(C)C(C)OC(=O)C(O)(c1ccccc1)c1ccccc1` (centres undefined): inactive: -5.77%. For `Cc1ccc(C(=O)NCC2(N3CCCCC3)CCCCC2)cc1`, the inhibition was inactive: 5.67%. Next, `CN(C)c1ccc(C(=O)NCC2(N(C)C)CCCCC2)cc1`: inactive: -7.69%. Next, `CN(C)C1CCCC1OC(=O)C(O)(c1ccccc1)c1ccccc1` (centres undefined): inactive: -4.5%; `Cc1ccccc1C(=O)NCC1(N2CCCCC2)CCCCC1`: inactive: 24%; `O=C(NCC1(N2CCCCC2)CCCCC1)c1cc(F)c(F)cc1Cl`: inactive: -2.44%.

For the molecule `C=CCN1CCN(CCOC(=O)C(O)(c2ccccc2)c2ccccc2)CC1`, the inhibition is inactive: -3.42%. Consider `O=C(NCC1(N2CCCCC2)CCCCC1)c1cccc(Br)c1`, for which the inhibition was inactive: -18.4%. With `CCN1CCCC(OC(=O)C2(O)c3ccccc3C=Cc3ccccc32)C1` (centres undefined), the inhibition was inactive: 3.59%. Next, `Cc1cc(C(=O)NCC2(N3CCCCC3)CCCCC2)ccc1[N+](=O)[O-]`: inactive: 1.12%.

For `COc1ccc(C(=O)NCC2(N(C)C)CCCCC2)cc1`, the inhibition was inactive: -4.15%. Consider `CN(C)C1(CNC(=O)c2ccc(Br)cc2)CCCCC1`, for which the inhibition is inactive: -8.75%. With `COc1cc(C(=O)NCC2(N(C)C)CCCCC2)c([N+](=O)[O-])cc1OC`, the inhibition was inactive: -3.24%. For the molecule `COc1ccc(Cl)cc1C(=O)NCC1(N(C)C)CCCCC1`, the inhibition was inactive: -4.99%. Next, `COc1cccc(C(=O)NCC2(N3CCCCC3)CCCCC2)c1`: inactive: -8.7%; `O=C(NCC1(N2CCCCC2)CCCCC1)c1cccc(Cl)c1`: inactive: -14.3%; `O=C(OC1CN2CCC1CC2)C(CO)(c1ccccc1)c1ccccc1` (centres undefined): inactive: -2.3%. Next, `COc1ccc(Br)c(C(=O)NCC2(N3CCCCC3)CCCCC2)c1`: inactive: -2.76%.

As to `CN(C)c1cccc(C(=O)NCC2(N(C)C)CCCCC2)c1`, the inhibition was inactive: -6.09%. For `CC(C)Oc1ccc(C(=O)NCC2(N(C)C)CCCCC2)cc1`, the inhibition is inactive: -12.2%.
